Each structure is given as a SMILES string.

The text below walks through data of ChEMBL document CHEMBL3098036, “Sulfonamide inhibition studies of the δ-carbonic anhydrase from the diatom Thalassiosira weissflogii” (Bioorg Med Chem Lett, 2014).

The assay concerns the target T1, Delta carbonic anhydrase (Conticribra weissflogii, UniProt Q5U9J1).
T1 sequence (Q5U9J1 whole entry): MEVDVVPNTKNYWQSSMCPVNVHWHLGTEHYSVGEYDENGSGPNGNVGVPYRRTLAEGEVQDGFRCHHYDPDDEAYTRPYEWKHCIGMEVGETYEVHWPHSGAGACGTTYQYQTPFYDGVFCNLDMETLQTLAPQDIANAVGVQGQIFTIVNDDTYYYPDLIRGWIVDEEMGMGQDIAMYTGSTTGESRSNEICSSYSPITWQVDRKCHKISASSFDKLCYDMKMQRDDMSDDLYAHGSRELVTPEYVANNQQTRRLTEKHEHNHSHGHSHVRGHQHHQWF

A word on the Ki: it is a dissociation constant, usually derived from enzyme kinetics or from competition with a known ligand. Higher therefore signals weaker binding. `Nc1ccc(S(N)(=O)=O)cc1` [SULFANILAMIDE] registered a Ki of 181 nM. This lies in the sub-micromolar range.
